Results as given in US9364465B2, “Thiazolidinediones of omega-3 polyunsaturated acids as new insulin sensitizers for treating type2 diabetes” (Jiva Pharma, Inc., priority 2013, dated 2016).

Sequences of proteins named here, by UniProt entry; tags and fusion partners are left off. Residues count along the entry.
UniProt P37231, 238-503 limits assumed, species assumed: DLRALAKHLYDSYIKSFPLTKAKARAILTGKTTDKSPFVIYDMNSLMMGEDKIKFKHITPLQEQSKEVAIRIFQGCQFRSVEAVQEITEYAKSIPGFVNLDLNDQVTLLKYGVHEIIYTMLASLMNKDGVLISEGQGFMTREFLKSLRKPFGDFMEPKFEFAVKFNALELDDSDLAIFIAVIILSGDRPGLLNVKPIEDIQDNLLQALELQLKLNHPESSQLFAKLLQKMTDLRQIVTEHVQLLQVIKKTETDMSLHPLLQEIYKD

Biological target: T1, PPARγ (Homo sapiens, UniProt P37231)
T1 construct: expressed in transfected cells
Test: cell-based chimeric receptor transcription assay (PPAR ligand binding domain fused to GAL4 DNA binding domain, GAL4-regulated luciferase reporter)
Conditions: for average luciferase values from transcription assay: * above background
Description: To determine if these compounds can activate PPARγ or the members of the PPAR family of nuclear receptors (PPARα and PPARδ), the ability of these compounds to activate PPAR receptors in a cell-based chimeric receptor transcription assay were tested. This is a standard nuclear receptor ligand activity assay that utilizes the ligand binding domain of the PPAR receptor fused to a heterologous GAL4 DNA binding domain. The transcriptional read-out is from a GAL4-regulated luciferase reporter. In this assay, compounds that activate the receptor cause an increase in luciferase activity measured in a luminometer. The data are shown in Table 1 below (average luciferase values from transcription assay).

## CN(CCOc1ccc(CC2SC(=O)NC2=O)cc1)c1ccccn1 (racemic) [Rosiglitazone, (RS)-5-[4-(2-[methyl(pyridine-2-yl)amino]ethoxy)benzyl]thiazolidine-2,4-dione, reference compound]
0.01 μM conc.
  average luciferase values from transcription assay: 482*
0.03 μM conc.
  average luciferase values from transcription assay: 1205*
0.08 μM conc.
  average luciferase values from transcription assay: 2301*
0.20 μM conc.
  average luciferase values from transcription assay: 3459*
0.51 μM conc.
  average luciferase values from transcription assay: 3828*
1.3 μM conc.
  average luciferase values from transcription assay: 3729*
3.2 μM conc.
  average luciferase values from transcription assay: 3941*
8 μM conc.
  average luciferase values from transcription assay: 4621*
20 μM conc.
  average luciferase values from transcription assay: 5575*
RE Conc. 20 μM
  RE: 5475
